Results as given in PubChem BioAssay (NCATS).
The list shows a part of the results, in another mix than the full data. Inconclusive results are not listed. Activity calls are given as the source filed them. Calls follow the shape of the dose curve; as a rule, active = well fitted curve in the direction sought with a large enough effect; inconclusive = small, poorly fitted or top-dose-only effect, or another doubt; inactive = no such curve, though single readings can be large; an effect the other way counts as inactive or inconclusive.

Key:
[1] = qHTS of pediatric cancer cell lines to identify multiple opportunities for drug repurposing: Primary screen for U-2 OS cells (AID 1347096); details: U-2 OS viability, CellTiter-Glo luminescence, 48 h; at 46 µM (top of the series);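 also: plate controls were DMSO wells for no effect and bortezomib positive control wells for full effect; nearly all actives have a fitted effect of over 50% in size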
Procedure, shortened: (§1)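 Viability after 48 h compound treatment at 37C, 500-1,000 cells/well, read as ATP luminescence with CellTiter-Glo. Primary screens used 11-point (MIPE, 0.78 nM-46 µM) or 8-point (NPC, 0.59 nM-46 µM) final concentrations; follow-up screens used 11-point dilutions.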

[2] = qHTS of pediatric cancer cell lines to identify multiple opportunities for drug repurposing: Primary screen for Saos-2 cells (AID 1347097); details: Saos-2 viability, CellTiter-Glo ATP luminescence, 48 h; at 46 µM (top of the series); also: % is scaled to controls: 0 for no effect and ±100 for the full control effect; nearly all actives have a fitted effect of over 40% in size
Procedure, shortened: (§2)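 ATP-based luminescence (CellTiter-Glo) quantifies viability after a 48-hour exposure. Compounds are dosed across 8 or 11 final concentrations; DMSO and 2.3 µM bortezomib serve as controls.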

[3] = qHTS of pediatric cancer cell lines to identify multiple opportunities for drug repurposing: Primary screen for SK-N-SH cells (AID 1347098); details: SK-N-SH viability, CellTiter-Glo luminescence, 48 h; at 57 µM (top of the series);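 also: DMSO served as neutral control and bortezomib at 2.3 µM as positive control; % is scaled to controls: 0 for no effect and ±100 for the full control effect; nearly all actives have a fitted effect of over 65% in size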
Procedure, shortened: (§3)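 Cells (500-1,000/well) rested 5 h, then received compounds for 48 h; metabolically active cells were measured by CellTiter-Glo luminescence. Final concentrations spanned up to 46 µM (MIPE, 11-point) or 0.59 nM-46 µM (NPC, 8-point) in primary screens, 11-point in follow-ups.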

[4] = qHTS of pediatric cancer cell lines to identify multiple opportunities for drug repurposing: Primary screen for NB1643 cells (AID 1347099); details: NB1643 neuroblastoma viability, CellTiter-Glo luminescence, 48 h; at 46 µM (top of the series);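 also: plate controls were DMSO neutral control for no effect and bortezomib positive control for full effect; nearly all actives have a fitted effect of over 50% in size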
[5] = qHTS of pediatric cancer cell lines to identify multiple opportunities for drug repurposing: Primary screen for LAN-5 cells (AID 1347100); details: LAN-5 neuroblastoma viability, CellTiter-Glo luminescence, 48 h; at 46 µM (top of the series);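 also: plate controls were DMSO neutral control for no effect and bortezomib positive control for full effect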
Procedure, shortened: as §1

[6] = qHTS of pediatric cancer cell lines to identify multiple opportunities for drug repurposing: Primary screen for BT-12 cells (AID 1347101); details: BT-12 viability, CellTiter-Glo luminescence, 48 h; at 57.3 µM (top of the series);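 also: plate controls were DMSO for no effect and bortezomib positive control for full effect; nearly all actives have a fitted effect of over 25% in size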
Procedure, shortened: as §3

[7] = qHTS of pediatric cancer cell lines to identify multiple opportunities for drug repurposing: Primary screen for Rh18 cells (AID 1347102); details: Rh18 rhabdomyosarcoma viability, CellTiter-Glo luminescence, 48 h; at 46 µM (top of the series); also: % is scaled to controls: 0 for no effect and ±100 for the full control effect; nearly all actives have a fitted effect of over 65% in size
Procedure, shortened: as §1

[8] = qHTS of pediatric cancer cell lines to identify multiple opportunities for drug repurposing: Primary screen for OHS-50 cells (AID 1347103); details: OHS-50 osteosarcoma viability, CellTiter-Glo luminescence, 48 h; at 57.3 µM (top of the series);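 also: plate controls were DMSO neutral control for no effect and bortezomib positive control for full effect; nearly all actives have a fitted effect of over 40% in size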
Procedure, shortened: as §3

[9] = qHTS of pediatric cancer cell lines to identify multiple opportunities for drug repurposing: Primary screen for RD cells (AID 1347104); details: RD rhabdomyosarcoma viability, CellTiter-Glo luminescence, 48 h; at 46 µM (top of the series);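 also: plate controls were DMSO for no effect and bortezomib for full effect; nearly all actives have a fitted effect of over 55% in size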
Procedure, shortened: as §2

[10] = qHTS of pediatric cancer cell lines to identify multiple opportunities for drug repurposing: Primary screen for MG 63 (6-TG R) cells (AID 1347105); details: MG 63 (6-TG R) viability, CellTiter-Glo, 48 h; at 46 µM (top of the series); also: % is scaled to controls: 0 for no effect and ±100 for the full control effect; nearly all actives have a fitted effect of over 50% in size
Procedure, shortened: as §2

[11] = qHTS of pediatric cancer cell lines to identify multiple opportunities for drug repurposing: Primary screen for control Hh wild type fibroblast cells (AID 1347106); details: Hh wild-type fibroblast viability, CellTiter-Glo luminescence, 48 h; at 46 µM (top of the series);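 also: % is scaled to controls: 0 for no effect and ±100 for the full control effect; a drop in luminescence marks cytotoxicity and a rise apparent proliferation; nearly all actives have a fitted effect of over 55% in size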
Procedure, shortened: as §1

[12] = qHTS of pediatric cancer cell lines to identify multiple opportunities for drug repurposing: Primary screen for Rh30 cells (AID 1347107); details: Rh30 rhabdomyosarcoma viability, CellTiter-Glo luminescence, 48 h; at 46 µM (top of the series); also: % is scaled to controls: 0 for no effect and ±100 for the full control effect; nearly all actives have a fitted effect of over 75% in size
Procedure, shortened: as §1

[13] = qHTS of pediatric cancer cell lines to identify multiple opportunities for drug repurposing: Primary screen for Rh41 cells (AID 1347108); details: Rh41 rhabdomyosarcoma viability, CellTiter-Glo luminescence, 48 h; at 46 µM (top of the series);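 also: luminescence drop marks cytotoxic hits; nearly all actives have a fitted effect of over 70% in size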
Procedure, shortened: as §2

[14] = qHTS of pediatric cancer cell lines to identify multiple opportunities for drug repurposing: Confirmatory screen for NB1643 cells (AID 1347109); details: NB1643 neuroblastoma cell viability; at 45.9 µM (top of the series);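 also: plate controls were DMSO for no effect and bortezomib for full effect; nearly all actives have a fitted effect of over 45% in size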
Procedure, shortened: as §1

[15] = qHTS of pediatric cancer cell lines to identify multiple opportunities for drug repurposing: Confirmatory screen for A673 cells (AID 1347110); details: A673 Ewing sarcoma cell viability; at 45.9 µM (top of the series);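 also: plate controls were DMSO neutral control for no effect and bortezomib positive control for full effect; nearly all actives have a fitted effect of over 65% in size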
Procedure, shortened: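 Viability was read as ATP luminescence (CellTiter-Glo) after 48 h of compound exposure at 37 C in A673 cells seeded at 500-1,000/well. Titrations reached 46 uM final, with 11 points in the confirmatory screen. Concentration-response curves were fitted directly.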

[16] = qHTS of pediatric cancer cell lines to identify multiple opportunities for drug repurposing: Confirmatory screen for SK-N-MC cells (AID 1347111); details: SK-N-MC cell viability; at 45.9 µM (top of the series);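 also: cells exposed to compound for 48 h before the readout; plate controls were DMSO for no effect and bortezomib for full effect; nearly all actives have a fitted effect of over 70% in size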
Procedure, shortened: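 SK-N-MC cells at 500-1,000 cells/well in growth media were pre-incubated 5 h, then exposed to compounds at 11-point dilutions for 48 h at 37 degrees C, 5% CO2. Viability was read as CellTiter-Glo luminescence.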

[17] = qHTS of pediatric cancer cell lines to identify multiple opportunities for drug repurposing: Confirmatory screen for BT-12 cells (AID 1347112); details: BT-12 rhabdoid tumor cells, viability; at 45.9 µM (top of the series); also: % is scaled to controls: 0 for no effect and ±100 for the full control effect; nearly all actives have a fitted effect of over 55% in size
Procedure, shortened: as §1

[18] = qHTS of pediatric cancer cell lines to identify multiple opportunities for drug repurposing: Confirmatory screen for LAN-5 cells (AID 1347113); details: LAN-5 neuroblastoma cell viability; at 45.9 µM (top of the series); also: % is scaled to controls: 0 for no effect and ±100 for the full control effect; nearly all actives have a fitted effect of over 65% in size
Procedure, shortened: as §1

[19] = qHTS of pediatric cancer cell lines to identify multiple opportunities for drug repurposing: Confirmatory screen for DAOY cells (AID 1347114); details: DAOY medulloblastoma cells viability, cytotoxicity qHTS; at 45.9 µM (top of the series)
Procedure, shortened: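 Viability measured as metabolically active cells via CellTiter-Glo luminescence following 48 hours of compound exposure, 11-point dilutions in confirmatory testing. 500-1,000 cells/well plated 5 hours before dosing; controls were DMSO and 2.3 µM bortezomib.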

[20] = qHTS of pediatric cancer cell lines to identify multiple opportunities for drug repurposing: Confirmatory screen for NB-EBc1 cells (AID 1347115); details: NB-EBc1 neuroblastoma cells, viability (cytotoxicity); at 45.9 µM (top of the series); also: % is scaled to controls: 0 for no effect and ±100 for the full control effect; nearly all actives have a fitted effect of over 45% in size
Procedure, shortened: as §1

CCOC(=O)N1CCC(=O)CC1
inactive: activity change, negative = cytotoxic [1] 10.3% | activity change, negative = cytotoxic [2] -6.52% | activity change, negative = cytotoxic [3] -7.1% | activity change, negative = cytotoxic [4] 24.8% | activity change, negative = cytotoxic [5] 9.75% | activity change, negative = cytotoxic [6] 11.7% | activity change, negative = cytotoxic [7] 38.4% | activity change, negative = cytotoxic [8] 12.6% | activity change, negative = cytotoxic [9] 11.2% | activity change, negative = cytotoxic [10] -9.4% | activity change, negative = cytotoxic [11] 9.74% | activity change, negative = cytotoxic [12] 25.4% | activity change, negative = cytotoxic [13] 32.1% | activity change, negative = cytotoxic [14] 7.59% | activity change, negative = cytotoxicity [15] 16.5% | activity change, negative = cytotoxic [16] -9.71% | activity change, negative = cytotoxic [17] -10.8% | activity change, negative = cytotoxicity [18] 12.8% | activity change, negative = cytotoxic [19] 11.6% | activity change, negative = cytotoxic [20] 3.65%

CCOC(=O)C(=O)CBr
inactive: activity change, negative = cytotoxic [1] 1.14% | activity change, negative = cytotoxic [2] -18.3% | activity change, negative = cytotoxic [3] 5.95% | activity change, negative = cytotoxic [4] -1.09% | activity change, negative = cytotoxic [5] 4.28% | activity change, negative = cytotoxic [6] 1.75% | activity change, negative = cytotoxic [7] 4.04% | activity change, negative = cytotoxic [8] 2.67% | activity change, negative = cytotoxic [9] -9.94% | activity change, negative = cytotoxic [10] -4.95% | activity change, negative = cytotoxic [11] 3.95% | activity change, negative = cytotoxic [12] 5.85% | activity change, negative = cytotoxic [13] 1.22%

CCC(=O)N(c1ccccc1)C1CCNCC1
inactive: activity change, negative = cytotoxic [1] 6.36% | activity change, negative = cytotoxic [2] -7.21% | activity change, negative = cytotoxic [3] 14.2% | activity change, negative = cytotoxic [4] -2.38% | activity change, negative = cytotoxic [5] -1.49% | activity change, negative = cytotoxic [6] 14.7% | activity change, negative = cytotoxic [7] -0.809% | activity change, negative = cytotoxic [8] 4.49% | activity change, negative = cytotoxic [9] 9.26% | activity change, negative = cytotoxic [10] -5.31% | activity change, negative = cytotoxic [11] 4% | activity change, negative = cytotoxic [12] 2.88% | activity change, negative = cytotoxic [13] 9.01%
